Patent publication US20200197498A1

Target: Nivolumab
Experiment: SPR (Biacore T200), Nivolumab immobilised on CM5 chip, 1 µM peptide injected

Row | Substance | SPR response [RU]
1 | MVF-PD-1 (32-50) (peptide) | 20
2 | MVF-PD-1 (73-90) (peptide) | 1000
3 | MVF-PD-1 (92-110) (peptide) | 970
